Measurements published in patent US20200308591A1, “PROMOTER REGION ANALYSIS METHODS AND CELLS FOR PRACTICING SAME” (Eurofins DiscoverX Corporation, priority 2019, published 2020).

Key:
[1] = tested on: NF-κB signaling pathways; test: U2OS NF-κB EFC reporter assay, TNFα stimulation of single-cell clones; assay type: cell-based; settings: 6h stimulation; range over the different clones; read-out: potency of TNFα
Experimental: NF-kB EFC Reporter Plasmid includes a promoter that has 5 tandemly repeated NF-κB transcription factor binding response elements, where of 3 GGGAATTTCC (SEQ ID NO:6) sequences are interspersed by 2 alternating GGGGACTTTCC (SEQ ID NO:6) sequences.
FIG. 4. Response to cytokine TNFα of single-cell clones of U20S NF-κB EFC Reporter cells. 2500 cells/well from 5 individual single-cell clones of a U2OS cells stably expressing NF-κB EFC Reporter construct were plated in a 384 well plate. Cells were stimulated with the indicated concentrations of TNFα for 6h followed by detection by PathHunter® FLASH detection reagent (+5×EA) with cell lysis.
TNFα is known to stimulate the “NF-κB signaling pathways” and the NF-κB transcription factor. Stimulation of U2OS cells stably transfected with NF-κB EFC Reporter construct using different dilutions of TNFα for 6h reveal a dose dependent stimulation of the NF-κB EFC reporter as evidenced by EFC after addition of +EA (FIG. 4). […] Assays for inhibition could be developed by looking for decreases in RLUs with test compounds in the presence of stimulating doses of TNFα is or other activating ligands (see FIG. 5).

[2] = tested on: TNF receptor; test: EFC-based versus Luciferase NFκB transcriptional reporter assay, TNFα; assay type: cell-based; settings: 18h stimulation
Experimental: FIG. 14. […] U2OS cells stably transfected with a plasmid encoding an NFκB transcriptional response element driving expression of either the EFC reporter (left panel) or (Firefly) Luciferase-PEST were stimulated with a range of concentrations of TNFα for 18h followed by cell lysis, addition of excess EA, incubation for 1h and determination of luminescence (RLU). The luminescence detected indicates the extent of induction of the respective carrier protein by TNFα.

EC50 [1]: 0.03 to 0.12 nM | potency in the EFC assay relative to the Luciferase assays [2]: 12-15
Substance: TNFα: cytokine known to stimulate the NF-κB signaling pathways; TNF receptor ligand
